Active and inactive are the calls of the source. The rule behind the calls is not given here.
Experiments:
[1] = biological target: Branched-chain alpha-ketoacid dehydrogenase kinase (Mus musculus) (UniProt O55028); conditions: Liver, dose 20.0 mg/kg, route ip, time 3.0 day
[2] = biological target: Branched-chain alpha-ketoacid dehydrogenase kinase (Mus musculus) (UniProt O55028); conditions: Heart, dose 20.0 mg/kg, route ip, time 3.0 day
[3] = biological target: Branched-chain alpha-ketoacid dehydrogenase kinase (Mus musculus) (UniProt O55028); conditions: Kidney, dose 20.0 mg/kg, route ip, time 3.0 day
[4] = biological target: Branched-chain alpha-ketoacid dehydrogenase kinase (Mus musculus) (UniProt O55028); conditions: Heart, dose 60.0 mg/kg, route ip, time 3.0 day
[5] = biological target: Branched-chain alpha-ketoacid dehydrogenase kinase (Mus musculus) (UniProt O55028); conditions: Liver, dose 60.0 mg/kg, route ip, time 3.0 day
[6] = biological target: Branched-chain alpha-ketoacid dehydrogenase kinase (Mus musculus) (UniProt O55028); conditions: Heart, dose 60.0 mg/kg, route ip, time 3.0 day; remark: listed apart in the source
[7] = biological target: Branched-chain alpha-ketoacid dehydrogenase kinase (Mus musculus) (UniProt O55028); conditions: Liver, dose 60.0 mg/kg, route ip, time 3.0 day; remark: listed apart in the source
[8] = biological target: Branched-chain alpha-ketoacid dehydrogenase kinase (Mus musculus) (UniProt O55028); conditions: Kidney, dose 60.0 mg/kg, route ip, time 3.0 day
[9] = biological target: Branched-chain alpha-ketoacid dehydrogenase kinase (Mus musculus) (UniProt O55028); conditions: Kidney, dose 60.0 mg/kg, route ip, time 3.0 day; remark: listed apart in the source

| SMILES | inhibition [1] | inhibition [2] | inhibition [3] | inhibition [4] | inhibition [5] | inhibition [6] | inhibition [7] | inhibition [8] | inhibition [9] |
| --- | --- | --- | --- | --- | --- | --- | --- | --- | --- |
| O=C(O)c1sc2cc(Cl)ccc2c1Cl | Active | 50% | 50% |  |  |  |  |  |  |
| O=C(Nc1nc(-c2ccc(F)cc2F)cs1)[C@H]1[C@H](C(=O)O)[C@H]2C=C[C@@H]1C2 |  |  |  | 50% | Active | inactive | inactive | 50% | inactive |

From ChEMBL document CHEMBL6071213, “Bicyclic Inhibitors of Branched-Chain α-Keto Acid Dehydrogenase Kinase (BDK) with In Vivo Activity” (ACS Med Chem Lett, 2024)
